The results in this text go back to US8507439B2, “Neuroprotective and neurorestorative method and compositions” (priority 2005, dated 2013).

The test system of one assay is N27 dopaminergic cells. Nature of the assay: Survival of N27 dopaminergic cells in the presence of 300 μM MPP+ neurotoxic agent. The following applies: 39 μM peptide + 300 μM MPP+. It counts as cell-based, rat.
The next assay concerns SHSY cells. Nature of the assay: LDH levels in residual surviving SHSY cells after Yankner peptide. The assay is classed as cell-based, human. On the procedure: In a tissue culture model for Alzheimer's disease, treatment with the Yankner peptide (amyloid fragment) causes cell death within 3 days. […] By studying the time course of cell death in this culture model for Alzheimer's disease, it was determined that about 60% of the cells die within 24 hrs. When the neuroprotective/neurorestorative peptide of the invention was added to the cells at the 24 hour time point (e.g., 24 hours after the cells were contacted with the Yankner peptide), over 40% of the injured neurons that were destined to die on day 3 were rescued.
Aliquots of 3×10^5 SHSY cells were plated in each well of a 24-well microtiter plate in 1 ml of medium containing no peptides (control=Ctrl), 20 μM Yankner peptide (Yankner), 20 μM Yankner peptide+75 μM DQ peptide (SEQ ID NO:2) added at time of plating (Yankner+BTX Simultaneous), or 20 μM Yankner+75 μM BTX-639 added 24 hr post plating (Yankner+BTX 24 Hr Post). Plates were incubated at 37° C. in a 5% CO2 incubator for 3 days, then each well was washed twice with 1×PBS to remove loosely bound cells. Whole cell lysates were prepared from the remaining attached (viable) cells, and Lactate dehydrogenase (LDH) activity measured as described in methods. The results are illustrated in FIG. 2, in which each histobar represents the mean of 11 independent trials. Error bars denote one standard deviation. […]

The subject of the next assay is Caspase-3. Briefly: Caspase-3 immunoblot of SHSY whole cell lysates. It counts as cell-based, human. The following applies: 20 μM Yankner + BTX-639. On the procedure:
Aliquots of 2×10^6 SHSY cells were plated into each of 7 T-25 cell culture flasks with 5 ml of medium containing 2 mM Staurosporine (a known neuronal apoptosis stimulator). Results are shown in FIG. 3 with (Marker lane M), 20 μM Yankner peptide (middle lanes), and 20 μM Yankner+BTX-639 (right lane). Flasks were incubated at 37° C. in a 5% CO2 incubator for 0, 12, 24, 48, or 72 hours (as indicated in FIG. 3), then whole cell lysates were prepared as described in Methods. Caspase-3 immuoblots were performed on 20 μg of total cellular protein per lane. Numbers to the left of the figure denote the sizes in kDa of the marker protein (Biorad Broad Scope). The position of Caspase-3 at the expected size of 32 kDa is denoted on the right of the figure. BTX-639 is the peptide DQ (SEQ ID NO:2).
(In general: In western blotting, separated proteins are transferred to a membrane and probed.)

The subject of assay [1] is SH-SY5Y human neuroblastoma cells. Briefly: Protection of SH-SY5Y neuroblastoma cells from Yankner peptide (b/A4), LDH content of remaining cells. The following applies: 0.4 μM peptide + 20 μM Yankner peptide. The assay is classed as cell-based. An excerpt:
A characteristic constituent of Alzheimer's Disease (AD) is the formation of plaques from the 39-43 amino acid long peptide derived from amyloid protein (Selkoe, D. TINS (1993) 16: 403-409). This molecule (b/A4) can be toxic to mammalian nerve cells. […] Yankner et al. (Science (1990) 250: 279-282) has developed this property in a culture method as an AD assay procedure. We have adapted this to test the efficacy of SEQ ID NO: 2 as a neuroprotective and/or neurorestorative peptide in the AD culture model.
In conjunction with Prof David Adams (WPI. Worcester, Mass.), the following two methods have been used to test the efficacy of SEQ ID NO: 2 in protecting SH-SY5Y human neuroblastoma cells from the toxic effects if b/A4.
Differentiated cultures of SH-SY5Y Human neuroblastoma cells were grown to a stage where the cells formed a network of neurites. The cultures consisting of an untreated control, and two experimental groups (1) treated with b/A4 and (2) with b/A4+ SEQ ID NO: 2. At day 3, after removal of the supernatant and the debris from dead cells by 3 washes with saline, the cells were then lysed and their LDH content was assayed for cell survival by measuring the LDH present in the remaining cells. The results were compared to LDH present in untreated controls, that were incubated for 3 days with no peptide additives (Table 7). The assay assumes that the LDH content of healthy cells remains constant and can be used as an index of living cells. The experiments using anoxia in our previous work were in agreement with this assumption.
This experiment was performed in the method described above for Example 6, Experiment 1, except that the cells were incubated for 4 days instead of 3 to enhance the degenerative effect of the Yankner peptide. At the end of the experiment the cultures were washed in saline containing 0.01% triton X-100 to remove all released LDH and cellular debris before lysis and analysis for LDH content of the surviving cells (Table 8).

Regarding EV, in the assay on N27 dopaminergic cells, the “% Rescue per Treatment time 0 hours” value is given as 100 ± 2% and the “% Rescue per Treatment time 24 hours” value was found to be 30 ± 7%.

For SEQ ID NO: 2 (DQ), the “injured neurons destined to die on day 3 that were rescued” value in the assay on SHSY cells (peptide added 24 hours after the cells were contacted with the Yankner peptide) was “over 40%”. The “rescue from cell death (in words)” value in the assay with SHSY cells (peptide added together with the amyloid fragment) was “rescued the cells from cell death”. Moreover, in the assay with Caspase-3, the “effect on cellular level of Caspase-3 (in words)” value is “reduced the effect of the Yankner peptide on the level of Caspase-3”. Also, the “% Survival” value in assay [1] (3 days) worked out at 100%; in assay [1] (4 days), 64.1%. For the same substance, the “OD 490 nm” value worked out at 0.935 OD 490 nm in assay [1] (3 days) and 0.287 OD 490 nm in assay [1] (4 days).
